Like-named read-outs stand apart in the source and are kept apart here.

Protein sequences, listed by entry. Tags and fused reporters are not part of them. Residues count along the entry.
UniProt P37231, 231-505: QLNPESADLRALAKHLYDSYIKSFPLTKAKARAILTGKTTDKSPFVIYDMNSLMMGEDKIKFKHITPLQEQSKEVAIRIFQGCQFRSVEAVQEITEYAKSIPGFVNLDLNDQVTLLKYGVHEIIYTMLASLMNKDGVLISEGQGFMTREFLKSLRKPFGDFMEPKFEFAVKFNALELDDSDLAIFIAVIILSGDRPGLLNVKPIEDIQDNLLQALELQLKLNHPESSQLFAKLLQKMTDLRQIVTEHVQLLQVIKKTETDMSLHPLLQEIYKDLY

This assay deals with T1, human PPARγ-LBD (Homo sapiens, UniProt P37231).
T1 construct: PPARγ-LBD (AAs 203–477 in isoform 1); made in house
Nature of the assay: TR-FRET coactivator recruitment assay, PPARγ-LBD. The conditions noted are these: Buffer A. Type of assay: biochemical. (TR-FRET usually uses a lanthanide donor and a delayed reading to cut background.)

Consider GW1929, for which the EC50 (in general, the concentration at which the effect is half-maximal) reads like this: (CBP peptide recruitment, read-out: PPARγ CBP EC50) 48.8 nM; (PGC1α peptide recruitment, read-out: PPARγ PGC1α EC50) 75.5 nM; (SRC1 peptide recruitment, read-out: PPARγ SRC1 EC50) 91.1 nM; (TRAP220 peptide recruitment, read-out: PPARγ TRAP220 EC50) 50.3 nM; (range over PGC1α, CBP, SRC1, TRAP220, read-out: EC50 values on the four coactivators, PPARγ) 48.8 to 91.1 nM.

The values above are taken from paper PMC10967972, “Different Coactivator Recruitment to Human PPARα/δ/γ Ligand-Binding Domains by Eight PPAR Agonists to Treat Nonalcoholic Fatty Liver Disease” (Biomedicines, 2024).
